Laboratory results: patent US20160195533A1 (MEDICINAL BIOCONVERGENCE RESEARCH CENTER, published 2016)

Legend:
[1] = target: T1, glutamyl-prolyl-tRNA synthetase (EPRS), endogenous protein of A549 or HEK293T cells (human, UniProt P07814); assay: endogenous co-IP with anti-EPRS antibody and protein A-agarose from A549 cytoplasm and nucleus fractions, anti-Snail1 western blot
T1 construct: Endogenous protein in lysates of human cell lines (A549 cytosol and nucleus fractions; HEK293T); also called endogenous EPRS; EPRS (WT)
Procedure: For the detection of endogenous EPRS interaction with Snail1 in nucleus and cytosol, the protein extracts were incubated with protein A agarose (Life technologies) for 30 minutes on ice, and then centrifuged to remove nonspecific IgG binding proteins. The pre-cleared supernatants were mixed with anti-EPRS antibody, incubated the mixture for 2 h at 4° C. with gentle agitation, added protein A agarose for 2 h, and centrifuged. After washing the precipitates with the cold lysis buffer 3-5 times, the precipitates were dissolved in the 2×SDS sample buffer and separated by SDS-PAGE.
The interaction between EPRS and Snail1 were verified at the endogenous level of cytoplasm and nucleus. A549 cells were treated with TGF-β1 of different concentrations (0, 1, 10, 20 ng/ml) for 48 hours, fractionated into the cytoplasm and the nucleus, and then subjected endo-IP using protein A-agarose beads (Invitrogen) and EPRS antibody.

[2] = target: T2, Flag-tagged EPRS (human Flag-tagged EPRS expression vector, Origene) (human, UniProt P07814); assay: co-IP with anti-FLAG M2 affinity gel from co-transfected HEK293T cells, anti-Strep western blot
T2 construct: Bought vector; The order of the parts is therefore not known; also called Flag-EPRS; not shown: Flag tag
From the text: The interaction between EPRS and Snail1 was verified through IP after co-transfection of the proteins. HEK293T cells were co-transfected with (1) FLAG-tag empty vector and STREP-tag empty vector, (2) FLAG-tag empty vector and STREP-tagged Snail1 expression vector, (3) FLAG-tagged EPRS expression vector and STREP-tag empty vector, (4) FLAG-tagged EPRS expression vector and STR EP-tagged Snail1 expression vector, that is, in a total of four types of conditions, and then respective proteins were overexpressed, and then IP was performed using the anti-FLAG M2 affinity gel (Sigma).

binding result [1]	binding result [2]	Binder
binds	–	Snail1, endogenous protein of A549, HCC44, HEK293T or H1299 cells (other, Endogenous protein in cell lysates) MPRSFLVRKPSDPNRKPNYSELQDSNPEFTFQQPYDQAHLLAAIPPPEILNPTASLPMLIWDSVLAPQAQPIAWASLRLQESPRVAELTSLSDEDSGKGSQPPSPPSPAPSSFSSTSVSSLEAEAYAAFPGLGQVPKQLAQLSEAKDLQARKAFNCKYCNKEYLSLGALKMHIRSHTLPCVCGTCGKAFSRPWLLQGHVRTHTGEKPFSCPHCSRAFADRSNLRAHLQTHSDVKKYQCQACARTFSRMSLLHKHQESGCSGCPR
–	binds	Strep-tagged Snail1 (pEXPR-IBA105-Snail1) (other, Overexpressed in HEK293T (or A549) cells; assayed in cell lysate; also called Strep-Snail; STREP-tag Snail1; not shown: Strep tag of pEXPR-IBA-105, at the N-terminus ('in the same manner as described above')) MPRSFLVRKPSDPNRKPNYSELQDSNPEFTFQQPYDQAHLLAAIPPPEILNPTASLPMLIWDSVLAPQAQPIAWASLRLQESPRVAELTSLSDEDSGKGSQPPSPPSPAPSSFSSTSVSSLEAEAYAAFPGLGQVPKQLAQLSEAKDLQARKAFNCKYCNKEYLSLGALKMHIRSHTLPCVCGTCGKAFSRPWLLQGHVRTHTGEKPFSCPHCSRAFADRSNLRAHLQTHSDVKKYQCQACARTFSRMSLLHKHQESGCSGCPR
